In the kinase profiling compilation of Christmann-Franck et al. (2016):
Where “and” joins values, the source holds several entries; their conditions need not be identical. Equal entries are not always repeated.

The chains behind the UniProt entries cited, without tags or fusion partners. Where a name states a change or a piece, a line headed by the entry shows the natural chain unless it says otherwise.
UniProt P37173, whole entry, looked up: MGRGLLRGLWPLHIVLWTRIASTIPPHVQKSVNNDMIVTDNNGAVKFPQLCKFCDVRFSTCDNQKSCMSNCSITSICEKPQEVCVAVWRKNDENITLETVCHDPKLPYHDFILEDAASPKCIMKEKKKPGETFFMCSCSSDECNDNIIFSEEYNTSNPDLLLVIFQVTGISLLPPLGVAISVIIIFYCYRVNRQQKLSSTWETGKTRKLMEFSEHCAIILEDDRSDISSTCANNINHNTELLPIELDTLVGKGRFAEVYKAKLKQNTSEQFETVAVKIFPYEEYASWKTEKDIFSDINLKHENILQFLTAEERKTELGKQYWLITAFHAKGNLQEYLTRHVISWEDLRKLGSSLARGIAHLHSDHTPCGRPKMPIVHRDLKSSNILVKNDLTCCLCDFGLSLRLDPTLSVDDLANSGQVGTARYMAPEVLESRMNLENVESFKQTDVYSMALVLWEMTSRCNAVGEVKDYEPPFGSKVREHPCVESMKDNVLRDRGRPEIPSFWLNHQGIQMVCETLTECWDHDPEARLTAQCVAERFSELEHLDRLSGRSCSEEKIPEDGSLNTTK
UniProt P30530, whole entry, looked up: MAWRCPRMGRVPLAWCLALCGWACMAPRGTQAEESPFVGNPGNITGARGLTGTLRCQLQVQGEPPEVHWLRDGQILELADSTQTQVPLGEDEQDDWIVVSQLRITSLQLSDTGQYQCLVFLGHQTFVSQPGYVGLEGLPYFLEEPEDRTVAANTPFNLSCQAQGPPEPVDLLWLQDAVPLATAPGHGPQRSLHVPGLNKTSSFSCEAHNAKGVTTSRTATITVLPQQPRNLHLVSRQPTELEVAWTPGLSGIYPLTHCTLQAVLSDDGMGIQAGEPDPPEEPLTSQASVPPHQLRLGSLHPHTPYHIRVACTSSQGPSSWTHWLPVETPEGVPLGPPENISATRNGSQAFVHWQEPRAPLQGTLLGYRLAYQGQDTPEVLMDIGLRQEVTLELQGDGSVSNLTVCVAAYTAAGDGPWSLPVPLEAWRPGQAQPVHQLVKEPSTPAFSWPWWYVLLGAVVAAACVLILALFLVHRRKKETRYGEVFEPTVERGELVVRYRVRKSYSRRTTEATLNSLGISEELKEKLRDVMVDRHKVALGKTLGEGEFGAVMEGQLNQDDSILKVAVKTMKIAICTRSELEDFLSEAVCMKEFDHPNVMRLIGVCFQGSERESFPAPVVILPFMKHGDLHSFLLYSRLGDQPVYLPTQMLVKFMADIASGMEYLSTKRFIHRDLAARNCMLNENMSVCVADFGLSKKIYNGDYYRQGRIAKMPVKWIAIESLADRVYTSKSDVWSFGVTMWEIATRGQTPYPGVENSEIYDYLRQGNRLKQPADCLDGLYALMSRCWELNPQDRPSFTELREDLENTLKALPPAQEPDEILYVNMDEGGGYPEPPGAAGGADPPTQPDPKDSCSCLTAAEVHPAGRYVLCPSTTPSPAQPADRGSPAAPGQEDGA
UniProt P28482, whole entry, looked up: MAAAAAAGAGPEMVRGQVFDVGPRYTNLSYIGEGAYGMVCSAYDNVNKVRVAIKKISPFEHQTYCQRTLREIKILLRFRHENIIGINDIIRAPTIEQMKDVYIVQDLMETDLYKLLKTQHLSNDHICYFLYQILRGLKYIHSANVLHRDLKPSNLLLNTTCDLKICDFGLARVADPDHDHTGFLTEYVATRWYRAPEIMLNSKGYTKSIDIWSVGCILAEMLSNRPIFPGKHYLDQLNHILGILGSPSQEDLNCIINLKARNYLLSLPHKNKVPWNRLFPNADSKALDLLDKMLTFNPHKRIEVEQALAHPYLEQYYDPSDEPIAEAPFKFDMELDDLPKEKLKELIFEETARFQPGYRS
UniProt Q09013: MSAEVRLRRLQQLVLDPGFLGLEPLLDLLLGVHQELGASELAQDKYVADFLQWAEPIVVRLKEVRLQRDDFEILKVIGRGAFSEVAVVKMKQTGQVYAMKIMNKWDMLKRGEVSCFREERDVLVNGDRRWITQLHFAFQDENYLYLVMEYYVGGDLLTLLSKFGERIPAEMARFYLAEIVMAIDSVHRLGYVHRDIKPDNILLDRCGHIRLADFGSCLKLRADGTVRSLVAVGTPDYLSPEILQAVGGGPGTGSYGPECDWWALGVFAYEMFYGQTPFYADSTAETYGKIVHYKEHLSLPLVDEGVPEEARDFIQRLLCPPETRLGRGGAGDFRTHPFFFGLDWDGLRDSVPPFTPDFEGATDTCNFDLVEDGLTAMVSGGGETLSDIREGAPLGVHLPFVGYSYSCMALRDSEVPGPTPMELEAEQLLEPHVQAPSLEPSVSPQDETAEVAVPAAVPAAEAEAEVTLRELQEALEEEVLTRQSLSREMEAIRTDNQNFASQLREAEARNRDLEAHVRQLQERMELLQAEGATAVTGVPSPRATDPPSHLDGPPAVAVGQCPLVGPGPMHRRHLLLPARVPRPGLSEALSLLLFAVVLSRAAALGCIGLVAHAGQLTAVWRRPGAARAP
UniProt Q9UIK4: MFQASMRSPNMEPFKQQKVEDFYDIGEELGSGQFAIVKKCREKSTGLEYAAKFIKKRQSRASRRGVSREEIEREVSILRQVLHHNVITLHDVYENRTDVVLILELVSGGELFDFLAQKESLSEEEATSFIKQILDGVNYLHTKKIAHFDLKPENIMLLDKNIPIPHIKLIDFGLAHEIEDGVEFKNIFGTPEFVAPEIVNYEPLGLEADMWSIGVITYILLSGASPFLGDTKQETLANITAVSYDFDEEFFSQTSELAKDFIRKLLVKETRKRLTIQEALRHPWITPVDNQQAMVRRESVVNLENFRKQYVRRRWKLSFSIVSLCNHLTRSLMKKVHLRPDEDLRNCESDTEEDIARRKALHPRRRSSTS
UniProt Q7L7X3: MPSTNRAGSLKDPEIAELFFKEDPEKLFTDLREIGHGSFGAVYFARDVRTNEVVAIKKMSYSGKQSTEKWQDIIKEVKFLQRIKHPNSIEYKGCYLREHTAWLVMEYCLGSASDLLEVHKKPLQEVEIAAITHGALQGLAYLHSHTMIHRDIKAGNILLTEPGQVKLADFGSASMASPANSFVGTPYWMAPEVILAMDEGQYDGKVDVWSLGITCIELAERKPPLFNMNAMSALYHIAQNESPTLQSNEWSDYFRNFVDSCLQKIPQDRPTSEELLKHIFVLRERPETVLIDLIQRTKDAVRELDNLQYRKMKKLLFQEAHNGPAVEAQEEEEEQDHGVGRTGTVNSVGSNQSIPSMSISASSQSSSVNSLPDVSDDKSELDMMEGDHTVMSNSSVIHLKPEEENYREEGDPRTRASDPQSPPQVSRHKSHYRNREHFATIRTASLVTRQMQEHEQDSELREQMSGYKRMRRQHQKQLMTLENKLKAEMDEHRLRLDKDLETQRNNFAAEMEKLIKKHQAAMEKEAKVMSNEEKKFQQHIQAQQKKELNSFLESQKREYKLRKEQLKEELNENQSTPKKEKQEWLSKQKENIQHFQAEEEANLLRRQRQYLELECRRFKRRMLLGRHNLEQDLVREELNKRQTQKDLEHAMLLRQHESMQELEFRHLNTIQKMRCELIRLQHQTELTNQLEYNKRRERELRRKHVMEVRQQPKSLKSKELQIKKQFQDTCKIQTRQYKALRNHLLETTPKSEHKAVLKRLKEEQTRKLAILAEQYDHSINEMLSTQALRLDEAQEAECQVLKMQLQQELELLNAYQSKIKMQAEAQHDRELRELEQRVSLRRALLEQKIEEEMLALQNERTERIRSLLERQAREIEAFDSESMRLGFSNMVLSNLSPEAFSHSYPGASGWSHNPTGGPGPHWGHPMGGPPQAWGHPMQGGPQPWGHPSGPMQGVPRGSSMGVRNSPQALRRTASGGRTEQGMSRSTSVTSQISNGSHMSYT
UniProt Q5VT25: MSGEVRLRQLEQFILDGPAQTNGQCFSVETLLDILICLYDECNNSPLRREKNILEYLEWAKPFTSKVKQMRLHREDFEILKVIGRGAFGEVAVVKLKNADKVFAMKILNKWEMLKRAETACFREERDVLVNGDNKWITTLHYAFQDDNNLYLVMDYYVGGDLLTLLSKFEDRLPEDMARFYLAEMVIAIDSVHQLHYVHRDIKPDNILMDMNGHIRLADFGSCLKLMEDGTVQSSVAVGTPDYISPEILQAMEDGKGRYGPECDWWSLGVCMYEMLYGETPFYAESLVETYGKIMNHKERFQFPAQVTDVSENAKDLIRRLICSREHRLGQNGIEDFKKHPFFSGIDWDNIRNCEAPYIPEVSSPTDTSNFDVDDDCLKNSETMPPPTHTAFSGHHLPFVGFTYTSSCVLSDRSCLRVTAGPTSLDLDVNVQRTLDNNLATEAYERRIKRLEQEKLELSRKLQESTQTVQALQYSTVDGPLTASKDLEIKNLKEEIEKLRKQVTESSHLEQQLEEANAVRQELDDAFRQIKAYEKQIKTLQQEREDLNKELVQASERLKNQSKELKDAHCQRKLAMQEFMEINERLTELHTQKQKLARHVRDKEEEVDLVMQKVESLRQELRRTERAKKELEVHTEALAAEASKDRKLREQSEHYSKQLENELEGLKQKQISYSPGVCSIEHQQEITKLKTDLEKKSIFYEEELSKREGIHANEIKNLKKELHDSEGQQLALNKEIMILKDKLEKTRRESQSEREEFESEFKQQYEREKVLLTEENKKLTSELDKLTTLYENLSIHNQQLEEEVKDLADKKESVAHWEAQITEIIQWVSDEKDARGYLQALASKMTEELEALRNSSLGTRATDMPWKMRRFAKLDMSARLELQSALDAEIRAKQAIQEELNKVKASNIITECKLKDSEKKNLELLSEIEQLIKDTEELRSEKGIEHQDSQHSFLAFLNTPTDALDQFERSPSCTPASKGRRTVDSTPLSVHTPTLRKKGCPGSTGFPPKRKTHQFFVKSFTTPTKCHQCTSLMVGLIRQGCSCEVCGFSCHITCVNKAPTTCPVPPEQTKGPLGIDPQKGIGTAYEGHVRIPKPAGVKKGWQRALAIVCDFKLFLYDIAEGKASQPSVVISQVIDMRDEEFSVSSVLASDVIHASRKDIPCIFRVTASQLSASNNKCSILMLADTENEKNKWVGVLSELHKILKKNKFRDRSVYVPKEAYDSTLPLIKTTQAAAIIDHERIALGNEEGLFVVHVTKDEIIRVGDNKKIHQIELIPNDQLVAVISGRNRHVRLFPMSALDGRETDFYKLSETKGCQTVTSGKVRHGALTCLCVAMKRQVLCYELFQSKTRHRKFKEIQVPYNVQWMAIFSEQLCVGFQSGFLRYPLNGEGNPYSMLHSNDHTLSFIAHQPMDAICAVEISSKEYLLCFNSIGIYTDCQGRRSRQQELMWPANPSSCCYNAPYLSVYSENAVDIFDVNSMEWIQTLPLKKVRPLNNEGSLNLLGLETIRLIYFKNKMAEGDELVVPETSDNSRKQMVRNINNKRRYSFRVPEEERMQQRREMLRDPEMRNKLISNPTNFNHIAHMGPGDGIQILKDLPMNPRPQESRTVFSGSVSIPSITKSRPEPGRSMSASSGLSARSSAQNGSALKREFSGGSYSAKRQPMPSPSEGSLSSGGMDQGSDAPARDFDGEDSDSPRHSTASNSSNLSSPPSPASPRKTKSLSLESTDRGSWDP
UniProt Q14164: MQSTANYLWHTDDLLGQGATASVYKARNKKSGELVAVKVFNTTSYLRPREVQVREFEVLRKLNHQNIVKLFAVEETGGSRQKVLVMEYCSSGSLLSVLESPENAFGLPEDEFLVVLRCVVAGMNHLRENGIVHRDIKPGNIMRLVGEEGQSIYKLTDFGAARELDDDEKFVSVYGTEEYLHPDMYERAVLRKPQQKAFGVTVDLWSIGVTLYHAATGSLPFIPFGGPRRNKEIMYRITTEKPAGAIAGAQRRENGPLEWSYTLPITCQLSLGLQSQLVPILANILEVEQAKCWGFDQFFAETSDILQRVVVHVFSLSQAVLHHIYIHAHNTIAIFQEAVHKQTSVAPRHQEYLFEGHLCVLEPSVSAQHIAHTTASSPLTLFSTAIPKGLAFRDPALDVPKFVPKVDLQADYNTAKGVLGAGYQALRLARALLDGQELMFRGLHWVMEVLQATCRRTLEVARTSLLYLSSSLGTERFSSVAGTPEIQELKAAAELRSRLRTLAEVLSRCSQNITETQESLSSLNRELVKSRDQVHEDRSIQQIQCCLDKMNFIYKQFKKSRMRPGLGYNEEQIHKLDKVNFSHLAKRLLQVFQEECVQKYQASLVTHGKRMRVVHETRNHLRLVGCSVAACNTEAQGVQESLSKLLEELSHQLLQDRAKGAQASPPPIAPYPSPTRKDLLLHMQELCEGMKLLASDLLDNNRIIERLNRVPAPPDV
UniProt Q9P1W9: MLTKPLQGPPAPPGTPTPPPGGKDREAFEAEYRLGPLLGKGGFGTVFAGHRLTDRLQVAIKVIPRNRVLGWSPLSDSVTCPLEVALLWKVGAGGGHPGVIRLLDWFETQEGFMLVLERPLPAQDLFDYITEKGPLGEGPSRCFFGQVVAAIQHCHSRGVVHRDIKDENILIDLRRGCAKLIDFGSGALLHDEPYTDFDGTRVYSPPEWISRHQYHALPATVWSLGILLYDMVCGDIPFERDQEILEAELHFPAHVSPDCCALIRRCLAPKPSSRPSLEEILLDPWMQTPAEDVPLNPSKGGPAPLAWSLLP

What was measured:
Assay in all cases: radiometric filter-binding kinase assay, Kinase HotSpot
Settings in all cases: compound 0.5 µM; ATP 10 µM
PRKCZ (human) = PRKCZ (human) (UniProt Q05513)
CAMK2D (human) = CAMK2D (human) (UniProt Q13557)
IGF1R (human) = IGF1R (human) (UniProt P08069)
MAPK9 (human) = MAPK9 (human) (UniProt P45984)
BRSK1 (human) = BRSK1 (human) (UniProt Q8TDC3)
PLK1 (human) = PLK1 (human) (UniProt P53350)
STK17A (human) = STK17A (human) (UniProt Q9UEE5)
FYN (human) = FYN (human) (UniProt P06241)
MERTK (human) = MERTK (human) (UniProt Q12866)
MAP3K8 (human) = MAP3K8 (human) (UniProt P41279)
MAPKAPK2 (human) = MAPKAPK2 (human) (UniProt P49137)
PTK2 (human) = PTK2 (human) (UniProt Q05397)
BLK (human) = BLK (human) (UniProt P51451)
SIK2 (human) = SIK2 (human) (UniProt Q9H0K1)
TGFBR2 (human) = TGFBR2 (human) (UniProt P37173)
PDPK1 (human) = PDPK1 (human) (UniProt O15530)
WEE1 (human) = WEE1 (human) (UniProt P30291)
FES (human) = FES (human) (UniProt P07332)
ERBB2 (human) = ERBB2 (human) (UniProt P04626)
LIMK1 (human) = LIMK1 (human) (UniProt P53667)
PTK2B (human) = PTK2B (human) (UniProt Q14289)
[1] = molecular target: TYK2 JH1 catalytic (human) (UniProt P29597)
TSSK1B (human) = TSSK1B (human) (UniProt Q9BXA7)
AXL (human) = AXL (human) (UniProt P30530)
DYRK3 (human) = DYRK3 (human) (UniProt O43781)
CLK3 (human) = CLK3 (human) (UniProt P49761)
MAPK1 (human) = MAPK1 (human) (UniProt P28482)
DMPK (human) = DMPK (human) (UniProt Q09013)
MAP3K5 (human) = MAP3K5 (human) (UniProt Q99683)
DAPK2 (human) = DAPK2 (human) (UniProt Q9UIK4)
TAOK1 (human) = TAOK1 (human) (UniProt Q7L7X3)
CDC42BPA (human) = CDC42BPA (human) (UniProt Q5VT25)
SGK3 (human) = SGK3 (human) (UniProt Q96BR1)
IKBKE (human) = IKBKE (human) (UniProt Q14164)
FLT1 (human) = FLT1 (human) (UniProt P17948)
PIM2 (human) = PIM2 (human) (UniProt Q9P1W9)
MAPK3 (human) = MAPK3 (human) (UniProt P27361)
FGFR1 (human) = FGFR1 (human) (UniProt P11362)
MELK (human) = MELK (human) (UniProt Q14680)
PRKG1 (human) = PRKG1 (human) (UniProt Q13976)
NEK4 (human) = NEK4 (human) (UniProt P51957)
CHEK1 (human) = CHEK1 (human) (UniProt O14757)

With CO[C@H]1[C@@H](OC)C[C@H](C)[C@@H](OC)C2=CC(=O)C=C(NC(=O)/C(C)=C\C=C/[C@H](OC)[C@@H](OC(N)=O)/C(C)=C\[C@@H]1C)C2=O the residual activity (PRKCZ (human)) was 86.8%, the residual activity (CAMK2D (human)) was 101% and the residual activity (IGF1R (human)) was 104%. It also gave a residual activity (MAPK9 (human)) of 97.1%, a residual activity (BRSK1 (human)) of 97.9% and a residual activity (PLK1 (human)) of 99.5%. The residual activity (STK17A (human)) was 92.9%, the residual activity (FYN (human)) was 99.3% and the residual activity (MERTK (human)) was 95.3%. For the same compound, the residual activity (MAP3K8 (human)) was 98%, the residual activity (MAPKAPK2 (human)) was 95.9% and the residual activity (PTK2 (human)) was 103%. For the same compound, the residual activity (BLK (human)) was 101%, the residual activity (SIK2 (human)) was 103% and the residual activity (TGFBR2 (human)) was 128%. It also gave a residual activity (PDPK1 (human)) of 102%, a residual activity (WEE1 (human)) of 102% and a residual activity (FES (human)) of 96%. For the same compound, the residual activity (ERBB2 (human)) was 102%, the residual activity (LIMK1 (human)) was 89.1% and the residual activity (PTK2B (human)) was 104%. The residual activity [1] was 102%, the residual activity (TSSK1B (human)) was 93% and the residual activity (AXL (human)) was 95.3%. The residual activity (DYRK3 (human)) was 101%, the residual activity (CLK3 (human)) was 93.1% and the residual activity (MAPK1 (human)) was 94.4%. For the same compound, the residual activity (DMPK (human)) was 99.5%, the residual activity (MAP3K5 (human)) was 99.4% and the residual activity (DAPK2 (human)) was 95.8%. For the same compound, the residual activity (TAOK1 (human)) was 99.3%, the residual activity (CDC42BPA (human)) was 91.6% and the residual activity (SGK3 (human)) was 102%. It also gave a residual activity (IKBKE (human)) of 103%, a residual activity (FLT1 (human)) of 102% and a residual activity (PIM2 (human)) of 87%. For the same compound, the residual activity (MAPK3 (human)) was 90.6%, the residual activity (FGFR1 (human)) was 93.1% and the residual activity (MELK (human)) was 97.9%. The residual activity (PRKG1 (human)) was 95.7% and 98.9%, the residual activity (NEK4 (human)) was 95.4% and the residual activity (CHEK1 (human)) was 95.4%.
